Values of other authors as cited in publication PMC6334293 (Journal of medicinal chemistry, 2018).

System: GCB-and ABC-type DLBCL xenograft models
Details: cited from earlier work

O=C(O)CCN1C(=O)/C(=C2/C(=O)Nc3ccc(Cl)cc32)SC1=S [FX1]
in vivo efficacy (GCB-and ABC-type DLBCL xenograft models): excellent efficacy | in vivo toxicity (at high concentrations): nontoxic
